## Yeast mating assay B: variants of the scFv Ab-14

Reference: Li et al. 2023, doi:10.1038/s41467-023-39022-2. File: FLAb, binding data.

Target: peptide PDVDLGDISGINAS, taken from heptad repeat 2 (HR2) of SARS-CoV-2 spike.

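Phage display of a naive human antibody library on the peptide gave the parent. Designed CDR sequences, proposed from the first random library and measured here. Their group label is 14L_Ctrl (Ctrl: baseline library sampled from a position-specific scoring matrix, with some repeated check sequences). The assay is AlphaSeq: two haploid yeast populations carry antibody and antigen on their surface. After mating in shaken culture at 30 °C for 16 h, diploids were selected and their barcode pairs sequenced. The ratio of observed to expected reads was calibrated, replicate by replicate, on BCL2-family standards whose Kd was known from biolayer interferometry. The assay was run in six technical replicates.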

Parent: Ab-14, a human scFv built as VH, a (GGGGS)3 linker, VL. Only the CDRs of the light chain vary.
VH: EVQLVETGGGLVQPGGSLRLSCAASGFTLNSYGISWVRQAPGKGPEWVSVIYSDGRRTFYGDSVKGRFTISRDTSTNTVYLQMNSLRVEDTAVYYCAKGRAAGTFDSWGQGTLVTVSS
VL: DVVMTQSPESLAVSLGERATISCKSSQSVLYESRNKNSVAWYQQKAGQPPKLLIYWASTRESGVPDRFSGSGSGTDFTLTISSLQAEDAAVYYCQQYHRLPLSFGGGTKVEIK

Variants are written as CDR1, CDR2 and CDR3 of the light chain (limits as in the source). Parent: KSSQSVLYESRNKNSVA, WASTRES, QQYHRLPLS. Scale: log10 of Kd in nM, estimated from mating counts; low values are strong binders. Replicates are averaged; those with no signal do not enter the mean. Where no diploid with the target was found in that replicate, the entry reads "nd": below detection, most likely a poor binder, though not proof of it. The authors' rule: three or more of the six replicates give a measured affinity, fewer mean a poor binder. Values of this round are not directly comparable with the first-round values of the same sequences. The parent sequence was in this pool as ten entries: three were never detected, three once, and four in most replicates, with averages from 0.34 to 2.37. Three control strains display no target. For all light chain designs, 4% of the pairings with them gave a signal, with a median of 2.64 and one signal in twenty below 1.59, so weak values seen in few replicates may be background. Also given: how often the same scFv was detected with the empty control strains, with their mean in brackets.

CDR-L1,CDR-L2,CDR-L3,log10 Kd (nM) by replicate,"log10 Kd (nM), mean",control signals
KSSYSCLYESRNKNSVA,WASTRES,QQYHRLPLS,nd nd nd 2.62 nd 2.35,2.48,0/18
KSSQSWLYEERNKNSVA,WASTRES,QQYHRLPLP,nd nd nd nd nd nd,nd,0/18
KSSTSVMYESRNKNSVA,WATTRES,QQYHRLPLS,1.66 nd 1.39 nd 2.67 nd,1.90,0/18
KSSQSVLYESRNKNHVA,WASTRVS,QQYHRLPLS,1.55 nd nd 1.70 nd nd,1.62,2/18 (2.44)
KSMQSVTYESRNKNSVA,WASTRES,QQYHRLPLS,1.62 2.43 nd 1.33 2.25 2.29,1.98,0/18
KSSDGVLYEDDNKNSVA,WASTRES,QQYHRLPLS,1.58 2.42 1.28 0.99 1.89 0.75,1.49,0/18
KSSQSVLYESMNKNSVA,WASTRES,QQYHRLPLS,1.43 2.47 1.43 2.42 1.79 1.95,1.91,1/18 (2.64)
KSSQSVLDESRNKDSVA,NASTRES,QQYHRLPLS,-0.09 0.64 0.08 0.52 0.43 0.23,0.30,0/18
KMSQSVLYESRNKNSVA,WASTRES,TQYHILPLS,0.70 1.25 1.30 0.76 nd 0.88,0.98,1/18 (2.04)
KSSQSVLYESRNKNSVA,SASTRES,SQYHRLPLS,2.77 2.09 3.88 4.71 2.24 2.67,3.06,2/18 (2.59)
KSSFSWLYESRNKNSVA,AASTRES,YQYHRLPLS,nd 1.22 nd nd nd 1.48,1.35,1/18 (1.76)
KVSQSVLYESRNKNSVA,WASTRES,QQYMQLPLS,0.53 0.57 0.17 0.14 0.04 0.18,0.27,0/18
KSSQSVLYESLNLNSIA,WASTRES,QQQHRLPPS,nd 1.41 2.02 2.19 1.69 2.21,1.90,0/18
KSSQSVLYESRNKNSVS,WASTRES,QQYHRHPLS,nd nd nd nd nd nd,nd,0/18
KSVQKVLDEDSNNNSVA,WASTRES,QQYHRLPLS,nd nd nd nd nd nd,nd,0/18
KSSQSVLYESRNKNSVA,WASTREP,QQYHHLPLS,1.64 2.11 1.10 1.01 2.08 2.67,1.77,2/18 (1.90)
KLSQSVLYESRNKNSVA,WASTRTS,QQYAILPLS,2.02 1.12 1.13 1.56 1.35 1.76,1.49,2/18 (3.16)
KSSQSVLYEKRNENSVA,DASTRES,QQYHRLPLS,-0.19 -0.05 -0.15 -0.34 -0.46 0.06,-0.19,0/18
FSSQSVLYESSFKNSVA,WASTRES,QQYHRMPLS,nd nd nd nd nd nd,nd,1/18 (3.34)
KSSQSVLYESRNKNSVA,DASTRES,QQYHSLPLS,1.17 1.33 1.61 1.43 1.81 1.54,1.48,1/18 (2.35)
KSSQSVLGESRNKNSVA,KASTRES,QTCHRLPLS,nd nd nd nd nd nd,nd,0/18
KMSQSVLYESRRKNSVA,WASTGES,QQYHRLPLS,nd 1.81 nd nd nd nd,1.81,0/18
VSSQSVLYESRNKNSVA,WASTRES,QQYHRDPLS,nd nd nd nd nd nd,nd,0/18
KSSQSVLYESRNKNSVA,NASTRET,QQYHRLPLS,0.73 0.41 0.59 0.43 0.65 0.98,0.63,0/18
KSSQSLLYESRNQNSVA,GASTRES,QQYHRLPAS,2.13 2.97 nd 2.50 3.40 2.63,2.73,2/18 (1.73)
KESQSMLYESRNYNSVA,QASTRES,DQYHRLPLS,nd nd nd nd nd nd,nd,0/18
KSSGSVLYELRNKNSVA,WASTRES,QQYHRLPLS,nd nd nd nd nd nd,nd,1/18 (1.63)
KSSQSVLYEYRNKNSVA,WASTRES,QQYHRLPLS,nd nd nd nd 2.32 3.15,2.74,0/18
KSSQSVLAESRNKNSVA,QASTRES,QQYHRKPLS,nd nd nd nd nd nd,nd,0/18
KSSQSVLYESRLKNSVA,WATTRES,QQYHRLPLF,nd nd nd nd nd nd,nd,0/18
KSSQSVLTESRNKNSVA,KASTRES,QQYHGLPLS,nd nd nd nd 2.40 nd,2.40,0/18
KSSQSVSYEYRNKNSVA,SASTRES,QQYHRLPLS,nd nd nd nd nd nd,nd,0/18
VSSMPVLYESRNKNSVA,KASHRES,QQYHRLPLS,1.59 1.74 2.18 nd 2.38 nd,1.97,0/18
KSSSSVLYESRYKNSVA,WASTREP,QQYHRLPLS,1.86 nd nd nd 2.08 nd,1.97,3/18 (1.85)
QSSQSVWYESRNKNSVA,WASTRES,QQYLGLPLS,nd nd nd nd nd nd,nd,0/18
KSSQSVLYDSRNKNSVA,WASTRES,QQYCRLPLS,nd nd nd nd nd nd,nd,0/18
KSSQSVLYESRNKNSVA,GALTRES,QQYHRLPLS,1.27 nd 0.74 2.16 2.62 1.49,1.66,0/18
KISQSVLYESRNKNSVA,HANTRES,QQYHRLPLS,-0.04 -0.10 -0.39 -0.67 -0.50 -0.15,-0.31,0/18
KSCQSVLEESRNKNSVA,WASTRES,QQYHRLPLS,1.96 2.45 nd 1.48 0.95 1.42,1.65,1/18 (4.55)
KSSQSVLYESRNKNSVA,EASTRES,QQYHRNPLS,nd nd nd nd nd nd,nd,0/18
KSSQSVLSESRNKNNVA,WASTRES,QQYHRLPLS,2.01 1.33 1.56 2.33 1.30 1.76,1.72,2/18 (2.24)
KSSQSVLTESRNENSVA,EASTRPW,QQYHRLPLS,0.20 0.35 0.46 0.50 0.20 0.15,0.31,0/18
MSSQSVLYESRNKNSVA,WASTRES,QQYHGLWLS,nd nd nd 3.57 2.38 nd,2.97,0/18
DSSQSVLFESRNKNSVA,EASTRES,QQYHRLYLS,1.05 1.67 1.31 nd nd 2.27,1.57,0/18
HSSQSVLYEGRNGNSVA,WASTRES,QQYQRLPLS,nd 1.44 nd nd nd 1.53,1.48,0/18

Repeated from above, the 4 best binders with a signal in all replicates:

CDR-L1	CDR-L2	CDR-L3	log10 Kd (nM) by replicate	log10 Kd (nM), mean	control signals
KISQSVLYESRNKNSVA	HANTRES	QQYHRLPLS	-0.04 -0.10 -0.39 -0.67 -0.50 -0.15	-0.31	0/18
KSSQSVLYEKRNENSVA	DASTRES	QQYHRLPLS	-0.19 -0.05 -0.15 -0.34 -0.46 0.06	-0.19	0/18
KVSQSVLYESRNKNSVA	WASTRES	QQYMQLPLS	0.53 0.57 0.17 0.14 0.04 0.18	0.27	0/18
KSSQSVLDESRNKDSVA	NASTRES	QQYHRLPLS	-0.09 0.64 0.08 0.52 0.43 0.23	0.30	0/18